This passage reports IC50 results from US10245267B2 (dated 2019).

Amino acid sequences for entries named in this document (tags omitted).
UniProt P04049, whole entry Y340E/Y341E: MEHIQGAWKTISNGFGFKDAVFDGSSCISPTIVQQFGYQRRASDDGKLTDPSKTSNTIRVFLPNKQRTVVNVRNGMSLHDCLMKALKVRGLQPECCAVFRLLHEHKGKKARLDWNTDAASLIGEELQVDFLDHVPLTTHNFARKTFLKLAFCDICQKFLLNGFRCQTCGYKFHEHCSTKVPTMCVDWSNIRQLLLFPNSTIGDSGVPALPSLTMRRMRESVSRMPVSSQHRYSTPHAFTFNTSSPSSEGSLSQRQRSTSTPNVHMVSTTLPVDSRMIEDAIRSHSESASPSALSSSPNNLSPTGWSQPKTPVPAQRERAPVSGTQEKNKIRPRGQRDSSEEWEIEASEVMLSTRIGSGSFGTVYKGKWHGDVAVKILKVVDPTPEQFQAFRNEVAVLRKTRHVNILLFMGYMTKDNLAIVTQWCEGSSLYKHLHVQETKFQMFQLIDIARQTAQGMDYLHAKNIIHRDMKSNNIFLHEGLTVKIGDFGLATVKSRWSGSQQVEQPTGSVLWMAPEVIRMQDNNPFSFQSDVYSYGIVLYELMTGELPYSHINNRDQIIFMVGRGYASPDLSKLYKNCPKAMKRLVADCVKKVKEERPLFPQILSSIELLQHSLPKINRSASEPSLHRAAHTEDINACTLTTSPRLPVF

In general, IC50 refers to the concentration at which inhibition is half-maximal. Read a high IC50 as weaker potency.

This assay deals with C-Raf FL (full-length C-Raf protein) (Homo sapiens (Human), UniProt P04049, Y340E/Y341E). It counts as biochemical.

On to `Cc1ccc(NC(=O)c2ccnc(S(C)(=O)=O)c2)cc1-c1cc2[nH]cnc2c(N2CCOCC2)n1` [Example 821, N-(4-methyl-3-(4-morpholino-1H-imidazo[4,5-c]pyridin-6-yl)phenyl)-2-(methylsulfonyl)isonicotinamide], for which half-maximal inhibition (IC50) was put at 0.4 nM.
